Chains of the proteins cited; added tags and fusions are not shown. Lines headed by an entry give the natural chain unless they say otherwise; changes in a name come on top.
UniProt P26664: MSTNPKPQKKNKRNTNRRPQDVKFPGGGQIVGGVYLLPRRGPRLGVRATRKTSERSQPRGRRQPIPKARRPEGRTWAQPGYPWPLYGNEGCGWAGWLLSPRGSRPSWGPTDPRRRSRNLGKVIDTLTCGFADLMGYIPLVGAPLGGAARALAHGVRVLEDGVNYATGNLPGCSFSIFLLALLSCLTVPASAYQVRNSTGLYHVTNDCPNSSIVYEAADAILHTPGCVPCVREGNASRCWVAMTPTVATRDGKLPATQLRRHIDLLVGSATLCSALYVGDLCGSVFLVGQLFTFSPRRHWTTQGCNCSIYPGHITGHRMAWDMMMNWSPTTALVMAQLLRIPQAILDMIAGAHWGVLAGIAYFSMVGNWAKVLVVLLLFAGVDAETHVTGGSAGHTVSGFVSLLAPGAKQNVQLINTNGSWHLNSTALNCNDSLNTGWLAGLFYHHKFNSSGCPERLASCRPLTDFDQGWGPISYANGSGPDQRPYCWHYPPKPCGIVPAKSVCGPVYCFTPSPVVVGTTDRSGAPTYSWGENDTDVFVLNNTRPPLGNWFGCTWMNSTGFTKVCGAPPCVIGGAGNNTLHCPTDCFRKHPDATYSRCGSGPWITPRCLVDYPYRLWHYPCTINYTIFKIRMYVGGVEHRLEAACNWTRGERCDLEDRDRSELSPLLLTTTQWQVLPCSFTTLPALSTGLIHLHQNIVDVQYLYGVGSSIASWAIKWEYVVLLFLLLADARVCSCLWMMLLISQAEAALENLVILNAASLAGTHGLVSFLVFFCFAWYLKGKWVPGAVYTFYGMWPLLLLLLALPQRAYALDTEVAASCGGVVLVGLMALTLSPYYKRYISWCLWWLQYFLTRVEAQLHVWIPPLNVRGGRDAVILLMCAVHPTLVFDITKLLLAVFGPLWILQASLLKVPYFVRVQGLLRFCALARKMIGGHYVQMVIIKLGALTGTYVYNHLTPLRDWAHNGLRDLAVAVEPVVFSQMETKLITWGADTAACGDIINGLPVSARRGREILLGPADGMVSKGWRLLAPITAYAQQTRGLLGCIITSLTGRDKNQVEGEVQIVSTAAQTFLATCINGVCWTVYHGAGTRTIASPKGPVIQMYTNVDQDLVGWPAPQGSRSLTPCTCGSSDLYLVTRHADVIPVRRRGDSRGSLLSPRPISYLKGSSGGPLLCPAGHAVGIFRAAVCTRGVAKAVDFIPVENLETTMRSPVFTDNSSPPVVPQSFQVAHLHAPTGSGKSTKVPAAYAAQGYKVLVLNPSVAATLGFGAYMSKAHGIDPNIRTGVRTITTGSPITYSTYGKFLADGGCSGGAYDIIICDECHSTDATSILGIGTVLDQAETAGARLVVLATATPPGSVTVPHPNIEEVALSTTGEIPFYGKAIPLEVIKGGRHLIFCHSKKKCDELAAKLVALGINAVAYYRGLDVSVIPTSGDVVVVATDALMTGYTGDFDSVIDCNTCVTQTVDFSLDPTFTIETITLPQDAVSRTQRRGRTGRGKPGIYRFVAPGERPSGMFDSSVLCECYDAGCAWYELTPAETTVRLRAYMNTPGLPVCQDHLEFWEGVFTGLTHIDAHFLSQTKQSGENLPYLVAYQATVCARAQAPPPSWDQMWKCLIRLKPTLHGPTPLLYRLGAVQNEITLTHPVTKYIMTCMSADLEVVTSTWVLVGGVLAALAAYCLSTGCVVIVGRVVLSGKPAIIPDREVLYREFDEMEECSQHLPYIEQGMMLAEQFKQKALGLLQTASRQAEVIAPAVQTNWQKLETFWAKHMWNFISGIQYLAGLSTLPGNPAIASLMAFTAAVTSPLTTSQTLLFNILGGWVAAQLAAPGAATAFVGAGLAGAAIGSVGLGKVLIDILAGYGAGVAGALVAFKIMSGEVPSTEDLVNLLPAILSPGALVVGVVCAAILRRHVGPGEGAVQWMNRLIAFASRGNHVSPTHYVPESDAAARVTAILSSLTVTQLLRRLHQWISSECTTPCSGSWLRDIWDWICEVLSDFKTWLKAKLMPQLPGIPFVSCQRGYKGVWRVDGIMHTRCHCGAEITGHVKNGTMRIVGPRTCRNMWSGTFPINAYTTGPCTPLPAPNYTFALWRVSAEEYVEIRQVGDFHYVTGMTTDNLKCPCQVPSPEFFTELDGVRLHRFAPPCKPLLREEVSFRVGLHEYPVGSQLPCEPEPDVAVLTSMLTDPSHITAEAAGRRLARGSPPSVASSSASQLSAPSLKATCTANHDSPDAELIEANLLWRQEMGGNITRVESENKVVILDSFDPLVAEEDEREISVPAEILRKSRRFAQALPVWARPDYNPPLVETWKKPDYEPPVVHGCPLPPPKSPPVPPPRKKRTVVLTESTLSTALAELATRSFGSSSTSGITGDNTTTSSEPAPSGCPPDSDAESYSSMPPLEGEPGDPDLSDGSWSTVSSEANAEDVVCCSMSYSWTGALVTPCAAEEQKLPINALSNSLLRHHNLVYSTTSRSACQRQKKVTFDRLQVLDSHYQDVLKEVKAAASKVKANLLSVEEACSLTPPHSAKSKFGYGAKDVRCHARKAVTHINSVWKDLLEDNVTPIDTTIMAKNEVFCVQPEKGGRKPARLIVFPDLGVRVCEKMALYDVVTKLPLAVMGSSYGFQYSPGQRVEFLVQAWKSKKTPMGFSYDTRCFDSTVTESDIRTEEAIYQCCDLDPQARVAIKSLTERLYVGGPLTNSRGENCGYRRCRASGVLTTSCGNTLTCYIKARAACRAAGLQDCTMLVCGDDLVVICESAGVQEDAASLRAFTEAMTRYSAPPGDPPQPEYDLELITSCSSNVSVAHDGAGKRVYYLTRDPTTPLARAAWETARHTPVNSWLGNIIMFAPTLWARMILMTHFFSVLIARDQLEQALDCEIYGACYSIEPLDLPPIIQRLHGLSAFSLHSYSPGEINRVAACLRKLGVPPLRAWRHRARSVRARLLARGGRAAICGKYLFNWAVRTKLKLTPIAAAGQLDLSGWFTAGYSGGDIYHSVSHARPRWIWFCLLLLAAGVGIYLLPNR

The target in the assay is HCV NS3-4A serine protease (full-length NS3-4A protein) (Hepatitis C virus genotype 1a (isolate 1) (HCV), UniProt P26664). Kind of assay: HCV NS3-4A protease assay. It is filed as biochemical, HCV genotype 1a. To be noted: strain HCV-1, fluorogenic peptide substrate, read-out: Protease assay Ex. 12 IC50. The protocol: The inhibitory activity of certain compounds of Table A against HCV NS3-4A serine protease is determined in a homogenous assay using the full-length NS3-4A protein (genotype 1a, strain HCV-1) and a commercially available internally-quenched fluorogenic peptide substrate as described by Taliani, M., et al. 1996 Anal. Biochem. 240:60-67, which is incorporated by reference in its entirety.
One may read the IC50 as the point on the concentration scale where inhibition reaches its midpoint. For the compound `C=C[C@@H]1C[C@]1(NC(=O)[C@@H]1C[C@@]2(CN1C(=O)[C@@H](NC(=O)[C@@H](NC(=O)[C@@H]1CCN1C(C)C)C1CCCCC1)C(C)(C)C)C(C)(C)C21CCC1)C(=O)NS(=O)(=O)N1CCCC1` [Compound 17, (5R,8S)-7-[(2S)-2-{[(2S)-2-cyclohexyl-2-({[(2S)-1-isopropylazetidin-2-yl]carbonyl}amino)acetyl]amino}-3,3-dimethylbutanoyl]-10,10-dimethyl-N-{(1R,2S)-1-[(pyrrolidin-1-ylsulfonyl)carbamoyl]-2-vinylcyclopropyl}-7-azadispiro[3.0.4.1]decane-8 carboxamide], the IC50 worked out at 2.5 nM.

On to `C=C[C@@H]1C[C@]1(NC(=O)[C@@H]1C[C@@]2(CN1C(=O)[C@@H](NC(=O)[C@@H](NC(=O)[C@@H]1CCCN1C1CCCC1)C(C)(C)C)C(C)(C)C)C(C)(C)C21CCC1)C(=O)NS(=O)(=O)N1CCCC1` [Compound 27, (5R,8S)-7-[(2S)-2-{[(2S)-2-({[(2S)-1-cyclopentylpyrrolidin-2-yl]carbonyl}amino)-3,3-dimethylbutanoyl]amino}-3,3-dimethylbutanoyl]-10,10-dimethyl-N-{(1R,2S)-1-[(pyrrolidin-1-ylsulfonyl)carbamoyl]-2-vinylcyclopropyl}-7-azadispiro[3.0.4.1]decane-8-carboxamide], for which the half-inhibitory concentration (IC50) came to 10 nM.

Regarding `C=C[C@@H]1C[C@]1(NC(=O)[C@@H]1C[C@@]2(CN1C(=O)[C@@H](NC(=O)[C@@H](NC(=O)[C@@H]1CCCCN1C(C)C)C1CCCCC1)C(C)(C)C)C(C)(C)C21CCC1)C(=O)NS(=O)(=O)N(C)c1ccccc1` [Compound 52, (5R,8S)-7-[(2S)-2-{[(2S)-2-cyclohexyl-2-({[(2S)-1-isopropylpiperidin-2-yl]carbonyl}amino)acetyl]amino}-3,3-dimethylbutanoyl]-10,10-dimethyl-N-[(1R,2S)-1-({[methyl(phenyl)amino]sulfonyl}carbamoyl)-2-vinylcyclopropyl]-7-azadispiro[3.0.4.1]decane-8-carboxamide], the concentration for half-maximal inhibition (IC50) was 2.5 nM.

`C=C[C@@H]1C[C@]1(NC(=O)[C@@H]1C[C@@]2(CN1C(=O)[C@@H](NC(=O)[C@@H](NC(=O)[C@@H]1CCCCN1C(C)C)C1CCCCC1)C(C)(C)C)C(C)(C)C21CCC1)C(=O)NS(=O)(=O)N(CCOC)C1CC1` [Compound 54, (5R,8S)-7-[(2S)-2-{[(2S)-2-cyclohexyl-2-({[(2S)-1-isopropylpiperidin-2-yl]carbonyl}amino)acetyl]amino}-3,3-dimethylbutanoyl]-N-[(1R,2S)-1-({[cyclopropyl(2-methoxyethyl)amino]sulfonyl}carbamoyl)-2-vinylcyclopropyl]-10,10-dimethyl-7-azadispiro[3.0.4.1]decane-8-carboxamide]: the half-inhibitory concentration (IC50) was determined as 2.5 nM.

As for `C=C[C@@H]1C[C@]1(NC(=O)[C@@H]1C[C@@]2(CN1C(=O)[C@@H](NC(=O)[C@@H](NC(=O)[C@@H]1CCCCN1C(C)C)C1CCCC1)C(C)(C)C)C(C)(C)C21CCC1)C(=O)NS(=O)(=O)N(CC)CC` [Compound 79, (5R,8S)-7-[(2S)-2-{[(2S)-2-cyclopentyl-2-({[(2S)-1-isopropylpiperidin-2-yl]carbonyl}amino)acetyl]amino}-3,3-dimethylbutanoyl]-N-[(1R,2S)-1-{[(diethylamino)sulfonyl]carbamoyl}-2-vinylcyclopropyl]-10,10-dimethyl-7-azadispiro[3.0.4.1]decane-8-carboxamide], the IC50 was determined as 2.5 nM.

Consider `C=C[C@@H]1C[C@]1(NC(=O)[C@@H]1C[C@@]2(CN1C(=O)[C@@H](NC(=O)[C@@H](NC(=O)[C@@H]1CCCCN1C(C)C)C1CCCCC1)C1CCCC1)C(C)(C)C21CCC1)C(=O)NS(=O)(=O)N(CC)CC` [Compound 80, (5R,8S)-7-[(2S)-2-{[(2S)-2-cyclohexyl-2-({[(2S)-1-isopropylpiperidin-2-yl]carbonyl}amino)acetyl]amino}-2-cyclopentylacetyl]-N-[(1R,2S)-1-{[(diethylamino)sulfonyl]carbamoyl}-2-vinylcyclopropyl]-10,10-dimethyl-7-azadispiro[3.0.4.1]decane-8-carboxamide], for which the IC50 is 2 nM.

Consider `C=C[C@@H]1C[C@]1(NC(=O)[C@@H]1C[C@@]2(CN1C(=O)[C@@H](NC(=O)[C@@H](NC(=O)[C@@H]1CCCCN1C)C1CCCCC1)C(C)(C)C)C(C)(C)C21CCC1)C(=O)NS(=O)(=O)N1CCCC1` [Compound 82, (5R,8S)-7-[(2S)-2-{[(2S)-2-cyclohexyl-2-({[(2S)-1-methylpiperidin-2-yl]carbonyl}amino)acetyl]amino}-3,3-dimethylbutanoyl]-10,10-dimethyl-N-{(1R,2S)-1-[(pyrrolidin-1-ylsulfonyl)carbamoyl]-2-vinylcyclopropyl}-7-azadispiro[3.0.4.1]decane-8-carboxamide], for which the half-inhibitory concentration (IC50) amounted to 2.5 nM.

For the compound `CC[C@@H]1C[C@]1(NC(=O)[C@@H]1C[C@@]2(CN1C(=O)[C@@H](NC(=O)[C@@H](NC(=O)[C@@H]1CCCN1CC)C1CCCCC1)C(C)(C)C)C(C)(C)C21CCC1)C(=O)NS(=O)(=O)N(CC)CC` [Compound 100, (5R,8S)-7-[(2S)-2-{[(2S)-2-cyclohexyl-2-({[(2S)-1-ethylpyrrolidin-2-yl]carbonyl}amino)acetyl]amino}-3,3-dimethylbutanoyl]-N-[(1R,2R)-1-{[(diethylamino)sulfonyl]carbamoyl}-2-ethylcyclopropyl]-10,10-dimethyl-7-azadispiro[3.0.4.1]decane-8-carboxamide], the IC50 is 10 nM.

`C=C[C@@H]1C[C@]1(NC(=O)[C@@H]1C[C@@]2(CN1C(=O)[C@@H](NC(=O)[C@@H](NC(=O)[C@@H]1CCCN1CC)C1CCCCC1)C(C)(C)C)C(C)(C)C21CCC1)C(=O)NS(=O)(=O)N(C)CC` [Compound 101, (5R,8S)-7-[(2S)-2-{[(2S)-2-cyclohexyl-2-({[(2S)-1-ethylpyrrolidin-2-yl]carbonyl}amino)acetyl]amino}-3,3-dimethylbutanoyl]-N-[(1R,2S)-1-({[ethyl(methyl)amino]sulfonyl}carbamoyl)-2-vinylcyclopropyl]-10,10-dimethyl-7-azadispiro[3.0.4.1]decane-8-carboxamide]: the IC50 stood at 2.5 nM.

Take `C=C[C@@H]1C[C@]1(NC(=O)[C@@H]1C[C@@]2(CN1C(=O)[C@@H](NC(=O)[C@@H](NC(=O)[C@@H]1CCCN1CC)C1CCCCC1)C(C)(C)C)C(C)(C)C21CCC1)C(=O)NS(=O)(=O)N(C)C(C)C` [Compound 109, (5R,8S)-7-[(2S)-2-{[(2S)-2-cyclohexyl-2-({[(2S)-1-ethylpyrrolidin-2-yl]carbonyl}amino)acetyl]amino}-3,3-dimethylbutanoyl]-N-[(1R,2S)-1-({[isopropyl(methyl)amino]sulfonyl}carbamoyl)-2-vinylcyclopropyl]-10,10-dimethyl-7-azadispiro[3.0.4.1]decane-8-carboxamide]: the 50% inhibitory concentration (IC50) is 2.5 nM.

Turning to `[2H]C([2H])([2H])C([2H])(N1CCC[C@H]1C(=O)NC(C(=O)N[C@H](C(=O)N1C[C@]2(C[C@H]1C(=O)N[C@]1(C(=O)NS(=O)(=O)N3CCCC3)C[C@H]1C=C)C(C)(C)C21CCC1)C(C)(C)C)C1CCCCC1)C([2H])([2H])[2H]` (stereo partly drawn) [Compound 140, (5R,8S)-7-[(2S)-2-{[(2S)-2-cyclohexyl-2-({[(2S)-1-d7-isopropylpyrrolidin-2-yl]carbonyl}amino)acetyl]amino}-3,3-dimethylbutanoyl]-10,10-dimethyl-N-{(1R,2S)-1-[(pyrrolidin-1-ylsulfonyl)carbamoyl]-2-vinylcyclopropyl}-7-azadispiro[3.0.4.1]decane-8-carboxamide-d7], the 50% inhibitory concentration (IC50) stood at 2.5 nM.

As for `C=C[C@@H]1C[C@]1(NC(=O)[C@@H]1C[C@@]2(CN1C(=O)[C@@H](NC(=O)[C@@H](NC(=O)c1cnccn1)C1CCCCC1)C(C)(C)C)C(C)(C)C21CCC1)C(=O)NS(=O)(=O)N(C)CCCl` [Compound 168, (5R,8S)-N-[(1R,2S)-1-({[(2-chloroethyl)(methyl)amino]sulfonyl}carbamoyl)-2-vinylcyclopropyl]-7-[(2S)-2-({(2S)-2-cyclohexyl-2-[(pyrazin-2-ylcarbonyl)amino]acetyl}amino)-3,3-dimethylbutanoyl]-10,10-dimethyl-7-azadispiro[3.0.4.1]decane-8-carboxamide], the IC50 was found to be 30 nM.

As for `C=C[C@@H]1C[C@]1(NC(=O)[C@@H]1C[C@@]2(CN1C(=O)[C@@H](NC(=O)[C@@H](NC(=O)[C@@H]1CCCCN1C(C)C)C1CCCCC1)C(C)(C)C)C(C)(C)C21CCC1)C(=O)NS(=O)(=O)N(C)CCCl` [Compound 171, (5R,8S)-N-[(1R,2S)-1-({[(2-chloroethyl)(methyl)amino]sulfonyl}carbamoyl)-2-vinylcyclopropyl]-7-[(2S)-2-{[(2S)-2-cyclohexyl-2-({[(2S)-1-isopropylpiperidin-2-yl]carbonyl}amino)acetyl]amino}-3,3-dimethylbutanoyl]-10,10-dimethyl-7-azadispiro[3.0.4.1]decane-8-carboxamide], the IC50 was 1 nM.

Regarding `C=C[C@@H]1C[C@]1(NC(=O)[C@@H]1C[C@@]2(CN1C(=O)[C@@H](NC(=O)[C@@H](NC(=O)[C@@H]1CCCCN1C(C)C)C1CCCCC1)C(C)(C)C)C(C)(C)C21CCC1)C(=O)NS(=O)(=O)NC1CC1` [Compound 172, (5R,8S)-7-[(2S)-2-{[(2S)-2-cyclohexyl-2-({[(2S)-1-isopropylpiperidin-2-yl]carbonyl}amino)acetyl]amino}-3,3-dimethylbutanoyl]-N-[(1R,2S)-1-{[(cyclopropylamino)sulfonyl]carbamoyl}-2-vinylcyclopropyl]-10,10-dimethyl-7-azadispiro[3.0.4.1]decane-8-carboxamide], the IC50 is 2.5 nM.

Values taken from US8613914B2, “Peptidomimetic sulfamide compounds and antiviral uses thereof” (Novartis AG, priority 2009, dated 2013).
